# Only some compounds are listed: those with a hit (about 13% of all), similar ones and a draw of the others.
# ALDH1A1 block: ALDH1A1 (human) enzyme inhibition. P00352. Purified ALDH1A1, NADH fluorescence, propionaldehyde substrate. Potency, µM (series often up to 75.3 µM), for inactives: at the highest dose activity, negative = inhibition, most hits filed as inhibitors. 220,000 compounds, 7.3% hits; active = well fitted inhibition curve with a large enough effect, not every such curve was filed as active; inconclusive = small, poorly fitted or top-dose-only effect, or another doubt; inactive = no such curve, though single readings can be large or run the other way;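 note: potency is the fitted concentration of half-maximal effect; plate controls were no enzyme wells and a reference inhibitor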
# KDM4E inh: blocks human JMJD2E demethylase activity; B2RXH2; Potency, µM (titrated, usually from 57.1 µM), without a hit: at the top dose activity change, negative = inhibition, actives largely listed as inhibitors; 230,000 compounds, 1.6% hits; AID 2147; JMJD2E catalytic domain, FDH-coupled NADH fluorescence (FDH is formaldehyde dehydrogenase);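 note: potency is the fitted concentration of half-maximal effect; 0% = wells with enzyme and -100% = buffer wells without enzyme; nearly all actives have a fitted effect of over 50% in size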
# Sfp PPTase inh: qHTS Assay for Inhibitors of Bacillus subtilis Sfp phosphopantetheinyl transferase (PPTase). Potency, µM, inactives show max response, negative = inhibition, most hits filed as inhibitors. Biochemical Sfp PPTase activity, qHTS. AID 1490, 2009. 4'-phosphopantetheinyl transferase ffp (Bacillus subtilis), Q9F4F7. hit rate 3.5% among 310,000; active = well fitted inhibition curve with a large enough effect; inconclusive = small, poorly fitted or top-dose-only effect, or another doubt; inactive = no such curve, though single readings can be large or run the other way;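 also: the enzyme is Sfp with the accession as filed and its product quenches rhodamine fluorescence; potency is read from the fitted curve at half-maximal effect; 0% = enzyme reaction without inhibitor and -100% = no enzyme wells; top concentration of the series not given in the record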
#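 Fluorescence-quenching assay with 15 nM Sfp, 5 uM rhodamine-CoA and 12.5 uM BHQ-2-labelled ybbR peptide in pH 7.6 Hepes/MgCl2 buffer. Enzyme was pre-incubated with compound for 15 min at room temperature. Rate was taken from the 30-min fluorescence change (525/598 nm).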
# miR-21 reporter: miR-21 reporter, rising signal. 340,000 tested, under 10 active. Potency, µM (highest dose often 38.3 µM), for the others: at the highest dose reporter change, positive = more light. HeLa miR-21 FLuc reporter, luciferase, 48 h. AID 2288; active = well fitted rising curve with a large enough effect; inconclusive = small, poorly fitted or top-dose-only effect; inactive = no such curve, though single readings can be large or run the other way;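 further: % of control where 0% means no effect; miR-21 action dims this reporter so a rising signal means less miR-21 action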
#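 HeLa cells endogenously expressing miR-21, stably carrying CMV-driven firefly luciferase with a downstream miR-21 binding site, 2000 cells/well. Titrations up to approximately 40 uM, 48 hours; luciferase luminescence read.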
# G9a block: blocks human histone lysine methyltransferase G9a; G9a H3K9 monomethylation, AlphaScreen, 2 h; Potency, µM (doses to about 102 µM), without a hit: at the highest dose activity, negative = inhibition, usual class: inhibitors; 350,000 compounds, 8.8% hits; AID 504332; note: potency is the fitted concentration of half-maximal effect; % is set by controls: 0 for no effect and ±100 for the full control effect; nearly all actives have a fitted effect of over 75% in size
#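 G9a (20 nM) preincubated 15 min RT with compounds, then 500 nM biotinylated H3K9 peptide and 20 uM SAM added; 2 h RT reaction. Monomethyl-H3K9 product detected by AlphaScreen with anti-H3K9me1 antibody, streptavidin donor and anti-rabbit IgG acceptor beads.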
# Lamin A splicing: changes lamin A minigene splicing in HeLa cells | Potency, µM (doses to about 46.1 µM), inactives show top-dose ratio change, negative = inhibition, actives largely listed as inhibitors | AID 1487 | 200,000 compounds, 0.01% hits | HeLa LMNA splicing GFP/RFP minigene ratio, 48 h; active = well fitted inhibition curve with a large enough effect in the signal ratio, with a control signal flat, not every such curve was filed as active; inconclusive = small, poorly fitted or top-dose-only effect, or effect the other way, or a change in a side signal; the % refers to the signal ratio; note: potency is the fitted concentration of half-maximal effect; % is set by controls: 0 for no effect and ±100 for the full control effect
#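 S3 HeLa stable clones carrying a lamin A-EGFP splicing minigene plus DsRed2 were seeded at 600 cells/well in Opti-MEM with 2% FBS, pin-dosed and incubated 48 h at 37°C. Acumen cytometry (488 nm) gave the GFP/RFP total-intensity ratio.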
# * = called active by the depositor; ? = inconclusive; . = no result; [ ] = dose if it differs, or a comment. Unless noted, calls come from the whole dose curve; as a rule, active = well fitted curve in the direction sought with a large enough effect; inconclusive = small, poorly fitted or top-dose-only effect, or another doubt; inactive = no such curve, though single readings can be large; an effect the other way counts as inactive or inconclusive.
No. | compound | ALDH1A1 block | KDM4E inh | Sfp PPTase inh
1 | O=C(N/C(=C/c1ccco1)C(=O)N1CCc2ccccc21)c1ccco1 | . | ? | 40µM*
2 | CNC(=O)/C(=C\c1ccco1)NC(=O)c1ccco1 | . | . | 11%
3 | O=C(NCCc1ccccc1)/C(=C\c1ccc([N+](=O)[O-])cc1)NC(=O)c1ccco1 | . | . | 14%
4 | CC(C)CC(NC(=O)/C(=C/c1ccco1)NC(=O)c1ccc(Br)o1)C(=O)O (stereo not drawn) | . | . | -16%
5 | Cc1ccc(Nc2nc(N)nc(COC(=O)c3ccc(Br)o3)n2)cc1 | . | . | .
6 | O=C(OCc1ccccn1)C1CCN(C(=O)c2ccc(Cl)cc2)CC1 | . | . | .
7 | O=C(NCc1ccccc1)/C(=C/c1ccccc1)NC(=O)c1ccco1 | . | . | 19%
8 | O=C(NCCO)/C(=C\c1ccco1)NC(=O)c1ccco1 | . | . | -9%
9 | O=C(NCc1ccccn1)/C(=C/c1ccco1)NC(=O)c1ccccc1 | -5% | -11% | 79µM*
10 | O=C(O)CCNC(=O)/C(=C\c1ccco1)NC(=O)c1ccco1 | . | . | 79µM*
11 | O=C(NCc1ccccc1)/C(=C/c1ccco1)NC(=O)c1ccco1 | -2% | -23% | 3%
12 | O=C(O)CCCCCNC(=O)/C(=C\c1ccco1)NC(=O)c1ccco1 | . | . | -15%

No. | miR-21 reporter | G9a block | Lamin A splicing
1 | -1% | -135%[59 µM] | .
2 | 2% | -16% | .
3 | -1% | 40µM* | .
4 | 0% | 34%[0.501 µM] | .
5 | . | -2% | .
6 | . | 3% | .
7 | 0% | 25%[59 µM] | .
8 | -5% | 32µM* | .
9 | -2% | -2%[59 µM] | -12%
10 | -3% | 22µM* | .
11 | 0% | 35µM* | .
12 | 3% | ? | .

# An excerpt of these results, as tab-separated lines.
no.	mol	ALDH1A1 block	KDM4E inh	Sfp PPTase inh	miR-21 reporter	G9a block	Lamin A splicing
1	O=C(N/C(=C/c1ccco1)C(=O)N1CCc2ccccc21)c1ccco1	.	?	40µM*	-1%	-135%[59 µM]	.
9	O=C(NCc1ccccn1)/C(=C/c1ccco1)NC(=O)c1ccccc1	-5%	-11%	79µM*	-2%	-2%[59 µM]	-12%

# (more compounds)
No. | compound | ALDH1A1 block | KDM4E inh | Sfp PPTase inh
13 | CC(CC(=O)N1CCc2ccccc21)n1cccn1 (stereo not drawn) | . | . | 19%
14 | CCCC1=Nc2cc(C(=O)NCC(C)c3ccccc3)ccc2Sc2ccccc21 (stereo not drawn) | . | . | .
15 | Cc1cc2oc(=O)cc(-c3ccccc3)c2c(C)c1-c1ccc(F)c(Cl)c1 | 5% | . | ?
16 | Cc1cc2oc(=O)cc(-c3ccccc3)c2c(C)c1-c1ccc(C#N)cc1 | 13µM* | . | -2%
17 | CC(=O)c1ccc(-c2c(C)cc3oc(=O)cc(-c4ccccc4)c3c2C)cc1 | -15% | . | -16%
18 | Cc1cc2oc(=O)cc(-c3ccccc3)c2c(C)c1-c1cccc(N)c1 | 25µM* | . | -2%
19 | COc1cc(OC)c2c(-c3ccccc3)cc(=O)oc2c1 | 14µM* | 9% | 6%
20 | COc1cc(OC)c2c(-c3cccc(-c4ccc(OC)c(F)c4)c3)cc(=O)oc2c1 | ? | . | -3%
21 | COc1cc(C(=O)NCC(c2ccco2)N2CCOCC2)cc(OC)c1OC (stereo not drawn) | . | . | .
22 | C=C(c1cccc2ccccc12)P(=O)(O)O | 3% | 1% | 1%
23 | COC(=O)C(C)NC(=O)c1cn(-c2ccccc2OC)c(=O)c2ccccc12 (stereo not drawn) | . | . | 9%
24 | NS(=O)(=O)c1ccc(NC(=S)NC2CC2)cc1 | ? | ? | 10µM*

No. | miR-21 reporter | G9a block | Lamin A splicing
13 | -23% | -5% | .
14 | ? | 4%[59 µM] | .
15 | . | 22% | .
16 | . | 27% | .
17 | . | 14% | .
18 | . | -3% | .
19 | -10% | 8% | 30%[9.22 µM]
20 | . | -1%[59 µM] | .
21 | . | 2% | .
22 | -11% | 16µM* | 3%
23 | -3% | 5% | .
24 | -3% | 10µM* | 27%[46 µM]

# (more compounds)
No. | compound | ALDH1A1 block | KDM4E inh | Sfp PPTase inh
25 | CCN(CC)c1ccc(NC(=S)NC(=O)C2CCC2)cc1 | . | . | 5%
26 | NS(=O)(=O)c1ccc(NC(=S)NC(=O)C2CCCC2)cc1 | . | . | 0%
27 | NS(=O)(=O)c1ccc(CNC(=S)NC2CC2)cc1 | 3.2µM* | 4% | 8%
28 | NS(=O)(=O)c1ccc(CCNC(=S)NC2CCCCC2)cc1 | . | 5% | 5%
29 | CC(=O)Nc1ccc(NC(=S)NC(=O)C2CCCC2)cc1 | . | . | 12%
30 | Cc1ccc2nc(-c3ccc(NC(=S)NC4CC(C)(C)NC(C)(C)C4)cc3)sc2c1 | ? | ? | 45µM*
31 | CC1(C)CC(NC(=S)Nc2ccc(S(N)(=O)=O)cc2)CC(C)(C)N1 | 16% | 3% | -71%
32 | Fc1ccc(CNC(=S)NC2CCCC2)cc1 | 14% | 16% | 26%
33 | S=C(NCc1ccncc1)NC1CCCC1 | 3% | 0% | 6%
34 | COC(=O)c1ccc(NC(=S)NC2CC(C)(C)NC(C)(C)C2)cc1 | 0% | 2% | -1%
35 | C=C1C(=O)OC2CC1C(OC(C)=O)CC(C)=CCCC(C)=CCC[C@@]2(C)O (stereo partly drawn) | ? | -2% | -14%
36 | Cc1ccc(Nc2nnc(-c3ccc4c(c3)OCO4)o2)c(C)c1 | 19µM* | ? | 50µM*

No. | miR-21 reporter | G9a block | Lamin A splicing
25 | -30% | 40µM* | .
26 | -7% | 71µM* | .
27 | -4% | 28µM* | .
28 | -1% | 9% | .
29 | -7% | 35% | .
30 | 36% | 50µM* | ?
31 | -1% | 50µM* | 8%[9.22 µM]
32 | -3% | 3% | ?
33 | 0% | 50µM* | .
34 | -7% | ? | -13%
35 | . | -3%[2.33 µM] | .
36 | -51% | 25µM* | .

# Looked up above.
# compound 34 in ALDH1A1 block is listed with 0%
# compound 33 in miR-21 reporter is listed with 0%

# Given screen by screen: two of the compounds above
(29) CC(=O)Nc1ccc(NC(=S)NC(=O)C2CCCC2)cc1
(28) NS(=O)(=O)c1ccc(CCNC(=S)NC2CCCCC2)cc1
Screen / compound no. | 29 | 28
ALDH1A1 block | . | .
KDM4E inh | . | 5%
Sfp PPTase inh | 12% | 5%
miR-21 reporter | -7% | -1%
G9a block | 35% | 9%
Lamin A splicing | . | .

# Continued.
No. | compound | ALDH1A1 block | KDM4E inh | Sfp PPTase inh
37 | Cc1ccc(C)c(N2CCN(Cc3nnc(-c4ccc5c(c4)OCO5)o3)CC2)c1 | . | . | .
38 | O=C1COc2ccc(C(=O)COC(=O)Cn3cnc4ccccc43)cc2N1 | 28µM* | -8% | ?
39 | O=C1COc2ccc(C(=O)COC(=O)c3cnc(Cl)c(Cl)c3)cc2N1 | 1.3µM* | 4% | -26%
40 | O=C1COc2ccc(C(=O)COC(=O)c3ccc(Cl)cc3[N+](=O)[O-])cc2N1 | . | . | .
41 | O=C1COc2ccc(C(=O)COC(=O)c3ncc(Cl)c(Cl)c3Cl)cc2N1 | . | . | .
42 | O=C1COc2ccc(C(=O)COC(=O)c3ccc([N+](=O)[O-])cc3Cl)cc2N1 | . | . | .
43 | O=C1COc2ccc(C(=O)COC(=O)c3ccco3)cc2N1 | . | -9% | 5%
44 | CCN(CC)S(=O)(=O)c1cc(C(=O)OCC(=O)c2ccc3c(c2)NC(=O)CO3)ccc1Cl | ? | 4% | ?
45 | CCOC(=O)CC(NC(=O)c1cc2c(=O)n3cccc(C)c3nc2s1)c1ccc(OCC(C)C)c(OC)c1 (stereo not drawn) | . | . | .
46 | COc1ccc(OC)c(C(=O)CSc2ncc3c(n2)-c2ccccc2N(Cc2ccccc2C)S3(=O)=O)c1 | . | . | .
47 | COC(=O)c1ccc(NC(=O)C(=O)NCC(c2cccnc2)N2CCc3ccccc32)cc1 (stereo not drawn) | . | . | .
48 | CSCc1ccc(C(=O)NC2CC(C)(C)Cc3c2cnn3-c2ccc(F)cc2)o1 (stereo not drawn) | . | . | -7%
49 | CSCc1ccc(C(=O)NC(C)c2cnn(-c3ccccn3)c2C)o1 (stereo not drawn) | . | . | 8%
50 | O=c1[nH]nc(Cc2ccc([N+](=O)[O-])cc2)c2ccccc12 | . | . | 4%
51 | O=c1[nH]nc(Cc2ccc(-c3ccc(Cl)cc3)o2)c2ccccc12 | ? | ? | 56µM*

No. | miR-21 reporter | G9a block | Lamin A splicing
37 | -8% | -8%[59 µM] | .
38 | -14% | ? | 10%
39 | 1% | -27% | ?
40 | . | 45µM* | .
41 | . | -4%[0.501 µM] | .
42 | . | 40µM* | .
43 | 0% | -10% | .
44 | 0% | -12%[59 µM] | ?
45 | -5% | 3%[59 µM] | .
46 | 0% | -4%[59 µM] | .
47 | -15% | -8%[59 µM] | -5%[46 µM]
48 | -5% | -25%[59 µM] | .
49 | -23% | 35µM* | .
50 | -11% | -21% | .
51 | -1% | ? | -7%

# Screening results (PubChem)
